System: IL-8 receptor (differentiated HL-60 cells)
Experiment: Calcium mobilization in differentiated HL-60 cells, Fluo-4/AM
Assay type: cell-based
Details: over control wells (plain medium = 1.0), about 10 to 200 μg/ml
Procedure: The HL-60 cells are cultured as described above, harvested and suspended in Tyrode's salt solution at a density of about 2×10^6 cells/ml. The Tyrode's salt solution contains about 137 mM NaCl, 2.7 mM KCl, 1 mM MgCl2, 1 mM CaCl2, 0.2 mM NaH2PO4, 12 mM NaHCO3, and 5.5 mM glucose.
The cells are labeled with 4 μM of Fluo-4/AM (Molecular Probes, Inc.) for 45 minutes at 37° C. to measure calcium mobilization from cells. The label is a dye that fluoresces when bound to calcium. […] An increase in fluorescence indicates an increase in calcium mobilization. The cells are washed three times with the Tyrode's salt solution after labeling and re-suspended at 5×10^6 cells/ml.
Changes in the level of cellular fluorescence are read in a Thermo Labsystems Fluorskan Acsent fluorescence plate reader (VWR Scientific Prod's). The controls include cells treated with either the native chemokine or the plain medium of Tyrode's Salt Solution. Data is expressed using 1.0 as the standard level of fluorescence in the plain medium. The reported values represent the mean of at least duplicate measurements from wells in one or more experiments.

| Structure (SMILES) | Average fold increase in calcium mobilization | Average fold increase in calcium mobilization (listed as 1655) |
| --- | --- | --- |
| CC[C@H](C)[C@H](NC(=O)[C@H](CS)NC(=O)[C@H](CCC(N)=O)NC(=O)[C@H](CS)NC(=O)[C@H](CCCNC(=N)N)NC(=O)[C@H](CC(C)C)NC(=O)[C@H](CCC(=O)O)NC(=O)[C@H](CCCCN)NC(=O)[C@H](C)NC(=O)[C@@H](N)CO)C(=O)N[C@@H](CCCCN)C(=O)N[C@H](C(=O)N[C@@H](Cc1ccc(O)cc1)C(=O)N[C@@H](CO)C(=O)N[C@@H](CCCCN)C(=O)NCCCCCCCCCCC(=O)N[C@@H](CC(N)=O)C(=O)N[C@@H](Cc1c[nH]c2ccccc12)C(=O)N[C@H](C(=O)N[C@@H](CCC(N)=O)C(=O)N[C@@H](CCCNC(=N)N)C(=O)N[C@H](C(=O)N[C@H](C(=O)N[C@@H](CCC(=O)O)C(=O)N[C@@H](CCCCN)C(=O)N[C@@H](Cc1ccccc1)C(=O)N[C@@H](CC(C)C)C(=O)N[C@@H](CCCCN)C(=O)N[C@@H](CCCNC(=N)N)C(=O)N[C@@H](C)C(=O)N[C@@H](CCC(=O)O)C(=O)N[C@@H](CC(N)=O)C(N)=O)C(C)C)C(C)C)C(C)C)[C@@H](C)O [SEQ ID NO:1646] | 33.9 |  |
| CC[C@H](C)[C@H](NC(=O)[C@H](CO)NC(=O)[C@H](CCC(N)=O)NC(=O)[C@H](CO)NC(=O)[C@H](CCCNC(=N)N)NC(=O)[C@H](CC(C)C)NC(=O)[C@H](CCC(=O)O)NC(=O)[C@H](CCCCN)NC(=O)[C@H](C)NC(=O)[C@@H](N)CO)C(=O)N[C@@H](CCCCN)C(=O)N[C@H](C(=O)N[C@@H](Cc1ccc(O)cc1)C(=O)N[C@@H](CO)C(=O)N[C@@H](CCCCN)C(=O)NCCCCCCCCCCC(=O)N[C@@H](CC(N)=O)C(=O)N[C@@H](Cc1c[nH]c2ccccc12)C(=O)N[C@H](C(=O)N[C@@H](CCC(N)=O)C(=O)N[C@@H](CCCNC(=N)N)C(=O)N[C@H](C(=O)N[C@H](C(=O)N[C@@H](CCC(=O)O)C(=O)N[C@@H](CCCCN)C(=O)N[C@@H](Cc1ccccc1)C(=O)N[C@@H](CC(C)C)C(=O)N[C@@H](CCCCN)C(=O)N[C@@H](CCCNC(=N)N)C(=O)N[C@@H](C)C(=O)N[C@@H](CCC(=O)O)C(=O)N[C@@H](CC(N)=O)C(N)=O)C(C)C)C(C)C)C(C)C)[C@@H](C)O [SEQ ID NO:1649] | 28.2 |  |
| CC[C@H](C)[C@H](NC(=O)[C@H](Cc1ccccc1)NC(=O)[C@H](CCC(N)=O)NC(=O)[C@H](Cc1ccc(O)cc1)NC(=O)[C@H](CCCNC(=N)N)NC(=O)[C@H](CC(C)C)NC(=O)[C@H](CCC(=O)O)NC(=O)[C@H](CCCCN)NC(=O)[C@H](C)NC(=O)[C@H](CO)NC(C)=O)C(=O)N[C@@H](CCCCN)C(=O)N[C@H](C(=O)N[C@@H](Cc1ccc(O)cc1)C(=O)N[C@@H](CO)C(=O)N[C@@H](CCCCN)C(=O)NCCCCCCCCCCC(=O)N[C@@H](CC(N)=O)C(=O)N[C@@H](Cc1c[nH]c2ccccc12)C(=O)N[C@H](C(=O)N[C@@H](CCC(N)=O)C(=O)N[C@@H](CCCNC(=N)N)C(=O)N[C@H](C(=O)N[C@H](C(=O)N[C@@H](CCC(=O)O)C(=O)N[C@@H](CCCCN)C(=O)N[C@@H](Cc1ccccc1)C(=O)N[C@@H](CC(C)C)C(=O)N[C@@H](CCCCN)C(=O)N[C@@H](CCCNC(=N)N)C(=O)N[C@@H](C)C(=O)N[C@@H](CCC(=O)O)C(=O)N[C@@H](CC(N)=O)C(N)=O)C(C)C)C(C)C)C(C)C)[C@@H](C)O [SEQ ID NO:1655] |  | 41.8 |

Reference: US20070160574A1, “Design of CXC chemokine analogs for the treatment of human diseases” (priority 2000, published 2007)
